Laboratory results taken from patent US4479951A, “1.4;3.6-Dianhydrohexitol nitrates substituted by purine bases, processes for their preparation and pharmaceutical compositions” (Dr. Willmar Schwabe GmbH & Co., priority 1980, dated 1984).

Test system: mongrel dogs
Test: circulatory-pharmacological effectiveness on the narcotised dog, intravenous administration
Format: in vivo

O=[N+]([O-])O[C@H]1CO[C@H]2[C@@H]1OC[C@H]2O[N+](=O)[O-]
APdiast: diastolic aorta pressure (2 min after i.v. 1 mg/kg): 99.4 mm.Hg
APsyst: systolic aorta pressure (2 min after i.v. 1 mg/kg): 145.7 mm.Hg
BFFem: blood flow in the A. femoralis, referred to 20 kg. body weight (2 min after i.v. 1 mg/kg): 31.2 mL/min
HF: heart frequency (2 min after i.v. 1 mg/kg): 143.7 min⁻¹
HLL: heart capacity left, referred to 20 kg. body weight (2 min after i.v. 1 mg/kg): 0.94 W
HLR: heart capacity right, referred to 20 kg. body weight (2 min after i.v. 1 mg/kg): 85.3 mW
HZV: heart minute volume, referred to 20 kg. body weight (2 min after i.v. 1 mg/kg): 3.8 min⁻¹
LVEDP: end diastolic pressure in the left ventricle (2 min after i.v. 1 mg/kg): 4.97 mm.Hg
PAP: average pressure in the A. pulmonalis (2 min after i.v. 1 mg/kg): 11.1 ±0.7 mm.Hg
PRA: pressure in the right atrium (2 min after i.v. 1 mg/kg): 1.12 mm.Hg
SV: beat volume, referred to 20 kg. body weight (2 min after i.v. 1 mg/kg): 26.3 mL
WAP: pulmonalis resistance, referred to 20 kg. body weight (2 min after i.v. 1 mg/kg): 0.23 U
WFem: femoralis resistance, referred to 20 kg. body weight (2 min after i.v. 1 mg/kg): 0.55 KU
WTP: total peripheral resistance, referred to 20 kg. body weight (2 min after i.v. 1 mg/kg): 4.02 U
dp/dt: rate of pressure increase in the left ventricle (2 min after i.v. 1 mg/kg): 2868.7 mm.Hg/sec.
APdiast: diastolic aorta pressure (5 min after i.v. 1 mg/kg): 102.2 mm.Hg
APsyst: systolic aorta pressure (5 min after i.v. 1 mg/kg): 152.9 mm.Hg
BFFem: blood flow in the A. femoralis, referred to 20 kg. body weight (5 min after i.v. 1 mg/kg): 35.4 mL/min
HF: heart frequency (5 min after i.v. 1 mg/kg): 133.5 min⁻¹
HLL: heart capacity left, referred to 20 kg. body weight (5 min after i.v. 1 mg/kg): 0.95 W
HLR: heart capacity right, referred to 20 kg. body weight (5 min after i.v. 1 mg/kg): 81.4 mW
HZV: heart minute volume, referred to 20 kg. body weight (5 min after i.v. 1 mg/kg): 3.7 min⁻¹
LVEDP: end diastolic pressure in the left ventricle (5 min after i.v. 1 mg/kg): 5.81 mm.Hg
PAP: average pressure in the A. pulmonalis (5 min after i.v. 1 mg/kg): 11.5 ±0.8 mm.Hg
PRA: pressure in the right atrium (5 min after i.v. 1 mg/kg): 1.72 mm.Hg
SV: beat volume, referred to 20 kg. body weight (5 min after i.v. 1 mg/kg): 27.4 mL
WAP: pulmonalis resistance, referred to 20 kg. body weight (5 min after i.v. 1 mg/kg): 0.22 U
WFem: femoralis resistance, referred to 20 kg. body weight (5 min after i.v. 1 mg/kg): 0.49 KU
WTP: total peripheral resistance, referred to 20 kg. body weight (5 min after i.v. 1 mg/kg): 4.39 U
dp/dt: rate of pressure increase in the left ventricle (5 min after i.v. 1 mg/kg): 2606.2 mm.Hg/sec.
APdiast: diastolic aorta pressure (7 min after i.v. 1 mg/kg): 100.3 mm.Hg
APsyst: systolic aorta pressure (7 min after i.v. 1 mg/kg): 152.9 mm.Hg
BFFem: blood flow in the A. femoralis, referred to 20 kg. body weight (7 min after i.v. 1 mg/kg): 37.3 mL/min
HF: heart frequency (7 min after i.v. 1 mg/kg): 128.7 min⁻¹
HLL: heart capacity left, referred to 20 kg. body weight (7 min after i.v. 1 mg/kg): 0.85 W
HLR: heart capacity right, referred to 20 kg. body weight (7 min after i.v. 1 mg/kg): 83.0 mW
HZV: heart minute volume, referred to 20 kg. body weight (7 min after i.v. 1 mg/kg): 3.3 min⁻¹
LVEDP: end diastolic pressure in the left ventricle (7 min after i.v. 1 mg/kg): 6.0 mm.Hg
PAP: average pressure in the A. pulmonalis (7 min after i.v. 1 mg/kg): 12.6 ±1.4 mm.Hg
PRA: pressure in the right atrium (7 min after i.v. 1 mg/kg): 1.78 mm.Hg
SV: beat volume, referred to 20 kg. body weight (7 min after i.v. 1 mg/kg): 25.9 mL
WAP: pulmonalis resistance, referred to 20 kg. body weight (7 min after i.v. 1 mg/kg): 0.27 U
WFem: femoralis resistance, referred to 20 kg. body weight (7 min after i.v. 1 mg/kg): 0.45 KU
WTP: total peripheral resistance, referred to 20 kg. body weight (7 min after i.v. 1 mg/kg): 4.72 U
dp/dt: rate of pressure increase in the left ventricle (7 min after i.v. 1 mg/kg): 2587.5 mm.Hg/sec.
APdiast: diastolic aorta pressure (10 min after i.v. 1 mg/kg): 98.4 mm.Hg
APsyst: systolic aorta pressure (10 min after i.v. 1 mg/kg): 152.9 mm.Hg
BFFem: blood flow in the A. femoralis, referred to 20 kg. body weight (10 min after i.v. 1 mg/kg): 38.4 mL/min
HF: heart frequency (10 min after i.v. 1 mg/kg): 121.7 min⁻¹
HLL: heart capacity left, referred to 20 kg. body weight (10 min after i.v. 1 mg/kg): 0.84 W
HLR: heart capacity right, referred to 20 kg. body weight (10 min after i.v. 1 mg/kg): 82.4 mW
HZV: heart minute volume, referred to 20 kg. body weight (10 min after i.v. 1 mg/kg): 3.4 min⁻¹
LVEDP: end diastolic pressure in the left ventricle (10 min after i.v. 1 mg/kg): 6.28 mm.Hg
PAP: average pressure in the A. pulmonalis (10 min after i.v. 1 mg/kg): 12.6 ±1.4 mm.Hg
PRA: pressure in the right atrium (10 min after i.v. 1 mg/kg): 1.87 mm.Hg
SV: beat volume, referred to 20 kg. body weight (10 min after i.v. 1 mg/kg): 27.4 mL
WAP: pulmonalis resistance, referred to 20 kg. body weight (10 min after i.v. 1 mg/kg): 0.26 U
WFem: femoralis resistance, referred to 20 kg. body weight (10 min after i.v. 1 mg/kg): 0.42 KU
WTP: total peripheral resistance, referred to 20 kg. body weight (10 min after i.v. 1 mg/kg): 4.66 U
dp/dt: rate of pressure increase in the left ventricle (10 min after i.v. 1 mg/kg): 2550.0 mm.Hg/sec.
APdiast: diastolic aorta pressure (15 min after i.v. 1 mg/kg): 98.4 mm.Hg
APsyst: systolic aorta pressure (15 min after i.v. 1 mg/kg): 154.8 mm.Hg
BFFem: blood flow in the A. femoralis, referred to 20 kg. body weight (15 min after i.v. 1 mg/kg): 40.9 mL/min
HF: heart frequency (15 min after i.v. 1 mg/kg): 118.2 min⁻¹
HLL: heart capacity left, referred to 20 kg. body weight (15 min after i.v. 1 mg/kg): 0.79 W
HLR: heart capacity right, referred to 20 kg. body weight (15 min after i.v. 1 mg/kg): 78.9 mW
HZV: heart minute volume, referred to 20 kg. body weight (15 min after i.v. 1 mg/kg): 3.2 min⁻¹
LVEDP: end diastolic pressure in the left ventricle (15 min after i.v. 1 mg/kg): 6.47 mm.Hg
PAP: average pressure in the A. pulmonalis (15 min after i.v. 1 mg/kg): 12.7 ±1.6 mm.Hg
PRA: pressure in the right atrium (15 min after i.v. 1 mg/kg): 1.97 mm.Hg
SV: beat volume, referred to 20 kg. body weight (15 min after i.v. 1 mg/kg): 26.8 mL
WAP: pulmonalis resistance, referred to 20 kg. body weight (15 min after i.v. 1 mg/kg): 0.26 U
WFem: femoralis resistance, referred to 20 kg. body weight (15 min after i.v. 1 mg/kg): 0.41 KU
WTP: total peripheral resistance, referred to 20 kg. body weight (15 min after i.v. 1 mg/kg): 4.96 U
dp/dt: rate of pressure increase in the left ventricle (15 min after i.v. 1 mg/kg): 2512.5 mm.Hg/sec.
APdiast: diastolic aorta pressure (20 min after i.v. 1 mg/kg): 96.6 mm.Hg
APsyst: systolic aorta pressure (20 min after i.v. 1 mg/kg): 154.8 mm.Hg
BFFem: blood flow in the A. femoralis, referred to 20 kg. body weight (20 min after i.v. 1 mg/kg): 40.9 mL/min
HF: heart frequency (20 min after i.v. 1 mg/kg): 112.5 min⁻¹
HLL: heart capacity left, referred to 20 kg. body weight (20 min after i.v. 1 mg/kg): 0.78 W
HLR: heart capacity right, referred to 20 kg. body weight (20 min after i.v. 1 mg/kg): 75.3 mW
HZV: heart minute volume, referred to 20 kg. body weight (20 min after i.v. 1 mg/kg): 3.1 min⁻¹
LVEDP: end diastolic pressure in the left ventricle (20 min after i.v. 1 mg/kg): 6.75 mm.Hg
PAP: average pressure in the A. pulmonalis (20 min after i.v. 1 mg/kg): 12.6 ±1.3 mm.Hg
PRA: pressure in the right atrium (20 min after i.v. 1 mg/kg): 2.15 mm.Hg
SV: beat volume, referred to 20 kg. body weight (20 min after i.v. 1 mg/kg): 27.9 mL
WAP: pulmonalis resistance, referred to 20 kg. body weight (20 min after i.v. 1 mg/kg): 0.25 U
WFem: femoralis resistance, referred to 20 kg. body weight (20 min after i.v. 1 mg/kg): 0.40 KU
WTP: total peripheral resistance, referred to 20 kg. body weight (20 min after i.v. 1 mg/kg): 4.92 U
dp/dt: rate of pressure increase in the left ventricle (20 min after i.v. 1 mg/kg): 2418.7 mm.Hg/sec.
APdiast: diastolic aorta pressure (25 min after i.v. 1 mg/kg): 98.4 mm.Hg
APsyst: systolic aorta pressure (25 min after i.v. 1 mg/kg): 156.6 mm.Hg
BFFem: blood flow in the A. femoralis, referred to 20 kg. body weight (25 min after i.v. 1 mg/kg): 41.9 mL/min
HF: heart frequency (25 min after i.v. 1 mg/kg): 112.0 min⁻¹
HLL: heart capacity left, referred to 20 kg. body weight (25 min after i.v. 1 mg/kg): 0.76 W
HLR: heart capacity right, referred to 20 kg. body weight (25 min after i.v. 1 mg/kg): 76.3 mW
HZV: heart minute volume, referred to 20 kg. body weight (25 min after i.v. 1 mg/kg): 3.0 min⁻¹
LVEDP: end diastolic pressure in the left ventricle (25 min after i.v. 1 mg/kg): 7.03 mm.Hg
PAP: average pressure in the A. pulmonalis (25 min after i.v. 1 mg/kg): 13.3 ±1.5 mm.Hg
PRA: pressure in the right atrium (25 min after i.v. 1 mg/kg): 2.38 mm.Hg
SV: beat volume, referred to 20 kg. body weight (25 min after i.v. 1 mg/kg): 26.8 mL
WAP: pulmonalis resistance, referred to 20 kg. body weight (25 min after i.v. 1 mg/kg): 0.27 U
WFem: femoralis resistance, referred to 20 kg. body weight (25 min after i.v. 1 mg/kg): 0.40 KU
WTP: total peripheral resistance, referred to 20 kg. body weight (25 min after i.v. 1 mg/kg): 5.22 U
dp/dt: rate of pressure increase in the left ventricle (25 min after i.v. 1 mg/kg): 2456.2 mm.Hg/sec.
APdiast: diastolic aorta pressure (30 min after i.v. 1 mg/kg): 98.1 mm.Hg
APsyst: systolic aorta pressure (30 min after i.v. 1 mg/kg): 155.6 mm.Hg
BFFem: blood flow in the A. femoralis, referred to 20 kg. body weight (30 min after i.v. 1 mg/kg): 41.5 mL/min
HF: heart frequency (30 min after i.v. 1 mg/kg): 110.0 min⁻¹
HLL: heart capacity left, referred to 20 kg. body weight (30 min after i.v. 1 mg/kg): 0.76 W
HLR: heart capacity right, referred to 20 kg. body weight (30 min after i.v. 1 mg/kg): 78.6 mW
HZV: heart minute volume, referred to 20 kg. body weight (30 min after i.v. 1 mg/kg): 3.0 min⁻¹
LVEDP: end diastolic pressure in the left ventricle (30 min after i.v. 1 mg/kg): 7.22 mm.Hg
PAP: average pressure in the A. pulmonalis (30 min after i.v. 1 mg/kg): 13.5 ±1.5 mm.Hg
PRA: pressure in the right atrium (30 min after i.v. 1 mg/kg): 2.34 mm.Hg
SV: beat volume, referred to 20 kg. body weight (30 min after i.v. 1 mg/kg): 27.8 mL
WAP: pulmonalis resistance, referred to 20 kg. body weight (30 min after i.v. 1 mg/kg): 0.27 U
WFem: femoralis resistance, referred to 20 kg. body weight (30 min after i.v. 1 mg/kg): 0.40 KU
WTP: total peripheral resistance, referred to 20 kg. body weight (30 min after i.v. 1 mg/kg): 5.13 U
dp/dt: rate of pressure increase in the left ventricle (30 min after i.v. 1 mg/kg): 2390.6 mm.Hg/sec.
